According to US20240100072A1, “SUBCUTANEOUSLY ADMINISTERED TREATMENTS FOR ADVANCED PARKINSON'S DISEASE” (AbbVie Inc., priority 2021, published 2024):

Test system: plasma proteins
Assay: Distribution: erythrocyte/plasma partitioning, plasma protein binding, blood-brain barrier
Type: in vitro ADME
Excerpt: The partitioning ratio for levodopa between erythrocytes and plasma is approximately 1. Levodopa has negligible binding to plasma proteins (<10%). Levodopa is transported into the brain by the carrier mechanism for large neutral amino acids.
Carbidopa is approximately 36% bound to plasma protein.
Both foslevodopa and foscarbidopa have low binding to plasma proteins (24%-26%).

With C[C@@](Cc1ccc(O)c(O)c1)(NN)C(=O)O [carbidopa] the “binding to plasma proteins” value was “approximately 36%”.
